Experimental data: paper PMC6271856, “Leishmanicidal Evaluation of Tetrahydroprotoberberine and Spirocyclic Erythrina-Alkaloids” (Molecules, 2014)

System: J774 macrophage cell line (J774A.1)
Assay: Macrophages in vitro cytotoxic assay (MTT)
Conditions: J774A.1 macrophages, 48 h treatment

`COC1CC23C(=CC(=O)N2CCc2cc4c(cc23)OCO4)C2OC12` (stereo not shown) was tested, and the “Macrophage cells (J774) CC50” value was 47.66 µg/mL.
